Test results: US20060188964A1, “Processing for producing and crystallizing G-protein coupled receptors” (priority 2004, published 2006)

Experiments:
[1] = target: 5HT2c serotonin receptor (Rattus norvegicus, UniProt P08909); details: tritiated LSD; membranes from GFP-selected HEK 293 cells expressing 5HT2c
[2] = target: T1, 5HT2c receptor (Rattus norvegicus, UniProt P08909); details: read-out: Kd(LSD); cell lines derived from tumors of 5HT2c-transformed NIH 3T3 cells; cited from earlier work
T1 sequence (P08909 33-460): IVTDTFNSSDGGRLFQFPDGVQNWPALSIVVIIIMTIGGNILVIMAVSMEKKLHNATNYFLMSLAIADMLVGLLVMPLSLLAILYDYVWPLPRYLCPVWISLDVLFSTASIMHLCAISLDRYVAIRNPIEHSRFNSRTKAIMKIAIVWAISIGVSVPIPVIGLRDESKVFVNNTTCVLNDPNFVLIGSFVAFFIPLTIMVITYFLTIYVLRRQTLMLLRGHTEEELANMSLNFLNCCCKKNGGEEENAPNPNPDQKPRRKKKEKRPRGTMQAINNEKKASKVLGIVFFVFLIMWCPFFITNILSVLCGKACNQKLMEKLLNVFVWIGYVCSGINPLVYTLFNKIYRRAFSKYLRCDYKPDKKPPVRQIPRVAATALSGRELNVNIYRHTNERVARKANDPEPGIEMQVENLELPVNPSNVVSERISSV

Substance: lysergic acid diethylamine [LSD]
- Kd [1]: ~1 nM
- Kd [2]: 2.2 nM
